Results as given in patent publication US7067665B2, “Oxybenzamide derivatives useful for inhibiting factor Xa or Vlla” (Sanofi-Aventis Deutschland GmbH, priority 2000, dated 2006).

By UniProt entry, the sequences of proteins in these tests, tags left out. Residues count along the entry.
UniProt P00742, 235-488 limits assumed: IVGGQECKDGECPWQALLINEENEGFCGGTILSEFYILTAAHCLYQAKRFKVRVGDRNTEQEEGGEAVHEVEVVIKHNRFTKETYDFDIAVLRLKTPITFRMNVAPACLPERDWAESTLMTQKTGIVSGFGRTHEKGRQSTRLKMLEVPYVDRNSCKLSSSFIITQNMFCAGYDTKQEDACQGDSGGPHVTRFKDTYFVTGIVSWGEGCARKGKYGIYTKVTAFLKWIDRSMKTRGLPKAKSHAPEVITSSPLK
UniProt P00742, 41-179 partner limits assumed: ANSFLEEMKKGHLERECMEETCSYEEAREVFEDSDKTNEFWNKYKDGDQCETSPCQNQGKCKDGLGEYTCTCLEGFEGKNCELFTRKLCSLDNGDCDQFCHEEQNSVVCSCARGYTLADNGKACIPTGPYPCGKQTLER

Target: human factor Xa (Homo sapiens, UniProt P00742)
Test: Factor Xa chromogenic assay (substrate S-2765);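 note: purified enzyme, compound preincubated with the enzyme for 10 min before substrate addition starts the reaction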
Format: biochemical
Settings: read-out: Ki(FXa); inhibition constant for inhibition of factor Xa; IC50 corrected for substrate competition; 25° C., enzyme 0.5 nM, substrate 140 μM; tested form: TFA

SMILES: COc1ccc(C(=O)NCC2CCN(c3ccncc3)CC2)cc1OCc1cccc(CN)c1
- Ki: 38.8 µM
